The list shows a part of the results, in another mix than the full data. The source made the active and inactive calls.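 How the source made its calls: active means surface receptor percent response at or below 58%, roughly 3 SD from nonfluorescent compounds; inactive means the rest.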
The compounds below were run against Beta-2 adrenergic receptor (Homo sapiens) (UniProt P07550) (assay: agonist-driven loss of surface beta2AR – cell-based, FAP fluorogen, flow cytometry, single point, cherry pick 1, confirmation (AID 540358)). Conditions: Am2.2-beta2AR cells, at 10 µM, hits give low values.

SMILES	percent response (surface receptor)
CN(C)C(=O)c1cc([N+](=O)[O-])cc2c1-c1c(cc([N+](=O)[O-])cc1[N+](=O)[O-])C2=O	active: 19.9%

From PubChem BioAssay AID540358 (NMMLSC, 2011)
